GIV Gai3 FP = inhibitors of GIV GBA-motif binding to rat Galpha-i3. actives 0.42% (n = 210,000). Galpha-i3/FITC-GIV peptide fluorescence polarization, 90 min; active compounds read low; scaled: aluminum fluoride 0%, vehicle 100%. AID 1224905. percent of control (FP), % (no concentration beside the values). P08753;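 active means replicate mean at 85% of control or lower, very high polarization wells dropped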;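 further: wells of about 15 µL received 100 nL stock; the first replicate is given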
HCMV NEC inh = inhibitors of HCMV UL50-UL53 nuclear egress complex interaction | HTRF UL50-UL53 interaction, normalized percent inhibition | inhibition, % (concentration not given with the values) | actives 0.15% (n = 190,000); in the data active = inhibition above about 27%, passing the limit was not always enough
Hits are given with their value. Shown are actives, neighbours in structure and some others; about 0.43% of the full set was active somewhere.

For O/N=C1/CCCc2nn(-c3ccccc3)nc21 the results were HCMV NEC inh 55.7.
O/N=C1\CCCc2c1nc(-c1ccccc1Cl)n2O was read as HCMV NEC inh inactive.
`C=CCN1C(=O)/C(=C\C=C2/CCCN2C)SC1=S` gave GIV Gai3 FP -61.2 and HCMV NEC inh inactive.
For CN1C(=O)/C(=C/C=C2/CCCN2C)N(C)C1=S the results were GIV Gai3 FP inactive and HCMV NEC inh inactive.
`CCOC(=O)c1[nH]c(CSc2cccc[n+]2[O-])c(C(=O)OCC)c1C` gave HCMV NEC inh 61.6.
CCOC(=O)c1[nH]c(CSc2nnc3ccccn23)c(C(=O)OCC)c1C was read as HCMV NEC inh inactive.
Screening CCCc1[nH]n(-c2ccccc2)c(=O)c1C(C)=NCCOC returned GIV Gai3 FP inactive and HCMV NEC inh inactive.
Screening CC(=O)NCCCc1[nH]n(-c2ccccc2)c(=O)c1NC(=O)c1ccccc1 returned HCMV NEC inh 65.0.
`Cc1ccc(-n2[nH]c(=O)c(N=O)c2O)cc1C` gave GIV Gai3 FP 85.1.
Screening CC(=O)Nc1ccc(N=Cc2c(C)[nH]n(-c3ccc(C)c(C)c3)c2=O)cc1 returned GIV Gai3 FP inactive.
For CC(C)C(=O)Oc1ccc(CO)cc1C(CCN(C(C)C)C(C)C)c1ccccc1 (stereo not drawn) the results were HCMV NEC inh inactive.
Screening Nc1c(C(=O)c2ccccc2)sc2nc(-c3ccccc3)cc(C(F)(F)F)c12 returned GIV Gai3 FP inactive.
`O=C1CSc2ccc(C(=O)N3CCN(Cc4ccc5c(c4)OCO5)CC3)cc2N1` gave HCMV NEC inh inactive.
Screening Cc1c(C#N)c2nc3ccccc3n2c(=O)/c1=C/NN1C(=O)CNC1=S returned GIV Gai3 FP -30.7 and HCMV NEC inh inactive.
Screening CCc1c(C)c(C#N)c2nc3ccccc3n2c1Nc1ccncc1 returned GIV Gai3 FP inactive.
For CCc1c(C)c(C#N)c2nc3ccccc3n2c1NCCN(C)C the results were HCMV NEC inh inactive.
CCn1c(O)c(/C=c2/c(C)c(C#N)c3nc4ccccc4n3c2=O)n(CC)c1=S was read as GIV Gai3 FP -48.2.
`COc1ccc(Nc2nc(C)c3nnn(-c4ccc(OC)c(Cl)c4)c3n2)cc1Cl` gave GIV Gai3 FP inactive and HCMV NEC inh inactive.
Screening O=C(O)c1cc(N2CCN(c3ccccc3Cl)CC2)nc2ccc(NC(=O)C3CCCC3)cc12 returned GIV Gai3 FP inactive and HCMV NEC inh inactive.
`COc1ccc(C2CC(=O)Nc3c2cnn3-c2nc3ccccc3s2)cc1O` (stereo not drawn) gave GIV Gai3 FP inactive.
For CCN(CC)c1ccc(/C=N/NC=O)c(O)c1 the results were HCMV NEC inh inactive.
`CCN(CC)c1ccc(C=C2C(=O)c3ccccc3C2=O)c(O)c1` gave GIV Gai3 FP -64.4 and HCMV NEC inh inactive.
For CCCn1nnc(NCc2ccc(-c3cc(Cl)cc(Cl)c3)o2)n1 the results were GIV Gai3 FP inactive and HCMV NEC inh inactive.
Screening COc1ccc(/C=C2\C=C(c3ccccc3)N(c3ccccc3)C2=O)cc1Br returned GIV Gai3 FP inactive.
COc1ccc(/C=C2\C=C(c3ccccc3)N(c3ccc(C)c(C)c3)C2=O)cc1Br was read as GIV Gai3 FP 63.8.
Screening CC(c1ccccc1)N1CCn2c(nc3cc(Cl)ccc32)C1 (stereo not drawn) returned GIV Gai3 FP inactive and HCMV NEC inh inactive.
`O=C(O)c1ccc2c3c1cccc3c(=O)n1c3ccccc3nc21` gave HCMV NEC inh inactive.
Screening O=c1c2ccc(NCCO)c3cccc(c32)c2nc3ccccc3n12 returned GIV Gai3 FP -51.6.
For O=C(O)c1ccccc1-c1nnc2c(Cl)cc(C(F)(F)F)cn12 the results were GIV Gai3 FP inactive and HCMV NEC inh inactive.
For Fc1ccccc1-c1nnc2ccc(C(F)(F)F)cn12 the results were HCMV NEC inh 56.9.
`CCOC(=O)c1oc2ccccc2c1NC(=O)COC(=O)C12CCC(=O)N1c1ccccc1S2` (stereo not drawn) gave HCMV NEC inh inactive.
Screening Clc1ccc(CN2CCN(Cc3ccc(Cl)cc3)C2/C=C/c2ccccc2)cc1 returned GIV Gai3 FP inactive.
`O=C(O)CN1C(=O)Cc2ccccc2C1=O` gave HCMV NEC inh 103.0.
`COC(=O)CN1C(=O)Cc2ccccc2C1=O` gave GIV Gai3 FP inactive and HCMV NEC inh inactive.
For C=Cc1c(C)/c2[n-]/c1=C\c1[n-]c(c(CC)c1C)/C=c1\[n-]c3c(c1C)C(=O)C(C(=O)[O-])C=3c1[n-]c(c(C)c1CCC(=O)[O-])\C=2.[Cu].[Na+].[Na+] (stereo not drawn) the results were HCMV NEC inh 52.5.
CCNC(=O)c1ccccc1Sc1ccccc1COC(C)=O was read as GIV Gai3 FP inactive and HCMV NEC inh inactive.
O=C(COc1ccccc1)Nc1ccc(S(=O)(=O)N2CCCCC2c2cccnc2)cc1 (stereo not drawn) was read as GIV Gai3 FP inactive.
COC(=O)CC1SC(=O)NC1=S (stereo not drawn) was read as GIV Gai3 FP -68.4 and HCMV NEC inh inactive.
Screening COC(=O)CC1SC(=O)NC1=Nc1ccc(C)cc1 (stereo not drawn) returned HCMV NEC inh inactive.
Screening O=C1Nc2ccc(Br)cc2/C1=C/c1cc2c([nH]1)CCCC2 returned HCMV NEC inh inactive.
Screening CN(C)S(=O)(=O)c1ccc2c(c1)/C(=C/c1cc3c([nH]1)CCCC3)C(=O)N2 returned GIV Gai3 FP -20.7 and HCMV NEC inh inactive.
Screening CCC(C)OC(=O)C1=C(C)NC2(O)c3ccccc3C(=O)C12O (stereo not drawn) returned GIV Gai3 FP inactive.
CC1=C(C(=O)OC(C)C)C2(O)C(=O)c3ccccc3C2(O)N1 (stereo not drawn) was read as GIV Gai3 FP inactive and HCMV NEC inh 60.8.
Screening OCC[n+]1ccc(/C=C/c2c[nH]c3ccccc23)cc1 returned GIV Gai3 FP -18.2.
Cc1ccccc1/C=C/c1c[nH]c2ccccc12 was read as GIV Gai3 FP inactive and HCMV NEC inh inactive.
For N#Cc1c(=O)n(O)c2ccccc2[n+]1[O-] the results were GIV Gai3 FP -33.3 and HCMV NEC inh inactive.
For O=c1c(-c2ccc(Oc3ccccc3)cc2)[n+]([O-])c2ccccc2n1O the results were GIV Gai3 FP inactive and HCMV NEC inh inactive.
CC(C)c1csc(-c2csc(S(=O)(=O)Nc3ccc(F)cc3Cl)c2)n1 was read as GIV Gai3 FP inactive.
COc1cc(-c2nc(C=Nc3ccc(C)cc3Br)c(O)o2)cc(OC)c1OC was read as GIV Gai3 FP inactive.
Cc1ccc(N=Cc2nc(-c3cccc4ccccc34)oc2O)c(Br)c1 was read as GIV Gai3 FP 24.9.
Screening Cc1cc(C)cc(NC(=O)c2cnc3ccccn3c2=O)c1 returned GIV Gai3 FP inactive and HCMV NEC inh inactive.
For CCN1C(=O)/C(=C\C=C2/N(CC)c3ccc(C(=O)OC)cc3N2CC)SC1=S the results were GIV Gai3 FP -73.7 and HCMV NEC inh inactive.
`CCN=C1S/C(=C\c2ccc(C(=O)OC)cc2)C(=O)N1CC` gave GIV Gai3 FP inactive and HCMV NEC inh inactive.
Screening CCOC(=O)CCn1c(-c2ccccc2)c(-c2ccccc2)c2cc(C)ccc21 returned GIV Gai3 FP inactive.
Screening CCOC(=O)c1c2ccc(O)cc2n2ccccc12 returned GIV Gai3 FP 69.0 and HCMV NEC inh inactive.
Screening CCOC(=O)c1c(C)n(C)c2ccc(O)cc12 returned GIV Gai3 FP inactive and HCMV NEC inh inactive.
`O=C1CC(=O)Nc2ccccc2N1` gave GIV Gai3 FP inactive and HCMV NEC inh inactive.

Screens: PubChem BioAssay, ICCB-Longwood Screening Facility, Harvard Medical School
